Results: US4943573A, “Imidazo[4,5-b]quinolinyloxyalkanoic acid amides with enhanced water solubility” (Bristol-Myers Squibb Company, priority 1989, dated 1990)

Amino acid sequences for entries named in this document (tags omitted). A change or cut given only in a name is not applied to a line headed by its entry.
UniProt Q14432: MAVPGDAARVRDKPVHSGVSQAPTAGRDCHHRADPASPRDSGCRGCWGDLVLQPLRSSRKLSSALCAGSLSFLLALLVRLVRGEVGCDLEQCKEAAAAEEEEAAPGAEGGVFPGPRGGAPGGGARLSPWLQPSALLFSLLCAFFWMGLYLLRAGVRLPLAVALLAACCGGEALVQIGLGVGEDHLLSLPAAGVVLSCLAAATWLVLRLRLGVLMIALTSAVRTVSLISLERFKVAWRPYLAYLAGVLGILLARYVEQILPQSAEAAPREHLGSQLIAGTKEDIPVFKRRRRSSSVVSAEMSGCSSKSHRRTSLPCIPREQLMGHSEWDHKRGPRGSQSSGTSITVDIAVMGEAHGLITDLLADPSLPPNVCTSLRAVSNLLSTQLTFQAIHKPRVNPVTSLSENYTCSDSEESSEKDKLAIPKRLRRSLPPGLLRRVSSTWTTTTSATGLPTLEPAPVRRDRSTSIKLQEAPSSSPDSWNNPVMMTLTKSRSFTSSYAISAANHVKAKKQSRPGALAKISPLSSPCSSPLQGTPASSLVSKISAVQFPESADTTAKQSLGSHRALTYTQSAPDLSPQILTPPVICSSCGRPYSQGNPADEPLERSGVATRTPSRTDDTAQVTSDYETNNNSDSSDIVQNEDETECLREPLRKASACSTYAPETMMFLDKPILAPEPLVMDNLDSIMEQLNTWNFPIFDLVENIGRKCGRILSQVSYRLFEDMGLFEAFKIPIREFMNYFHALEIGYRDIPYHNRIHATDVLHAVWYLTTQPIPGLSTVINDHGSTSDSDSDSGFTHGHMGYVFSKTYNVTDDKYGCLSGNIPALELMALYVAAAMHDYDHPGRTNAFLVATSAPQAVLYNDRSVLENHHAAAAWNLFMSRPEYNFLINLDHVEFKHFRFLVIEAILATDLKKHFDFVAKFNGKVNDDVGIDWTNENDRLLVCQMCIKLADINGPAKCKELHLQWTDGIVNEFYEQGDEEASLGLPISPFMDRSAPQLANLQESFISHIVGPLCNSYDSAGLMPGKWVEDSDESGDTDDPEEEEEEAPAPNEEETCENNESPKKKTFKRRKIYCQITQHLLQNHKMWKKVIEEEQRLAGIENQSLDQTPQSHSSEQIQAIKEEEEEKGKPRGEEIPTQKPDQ

Molecular target: T1, cyclic AMP phosphodiesterase (PDE) enzyme obtained from human platelets (Homo sapiens, UniProt Q14432)
T1 construct: phosphodiesterase (PDE) enzyme obtained from human platelets; from tissue; host or cells: human platelets
Assay: inhibition of cyclic AMP phosphodiesterase
Type: biochemical
Description: This assay is carried out essentially as described by Thompson, et al., Methods in Enzymology, 38, […] (1974). Briefly, tritium labeled cyclic adenosine monophosphate (cAMP) is incubated with a phosphodiesterase (PDE) enzyme obtained from human platelets which converts a portion of the cAMP to 5'AMP in culture tubes. This reaction is terminated by submerging the tubes in a boiling water bath after which they are placed on ice and an aliquot of snake venom is added to each tube. This, during a second incubation, converts the 5'AMP to adenosine. Ion exchange resin is added to bind the remaining cyclic AMP. The tubes are centrifuged to sediment the resin and a portion of the clear supernatent (which contains radioactive adenosine) is counted in a liquid scintillation counter. The cAMP phosphodiesterase inhibition activity of a test agent is determined by pre-incubating the PDE enzyme preparation with the test agent. Dose response values are obtained and activity of the test agent reported as the molar (M) concentration of the test agent inhibition 50% of the PDE activity (IC50 s).

Cn1c(=O)c2[nH]cnc2n(C)c1=O [Theophylline, reference compound]
IC50: 100 µM
